We go through one molecule from ChEMBL document CHEMBL5113403.

By UniProt entry, the sequences of proteins in these tests, tags left out.
UniProt P05177, whole entry: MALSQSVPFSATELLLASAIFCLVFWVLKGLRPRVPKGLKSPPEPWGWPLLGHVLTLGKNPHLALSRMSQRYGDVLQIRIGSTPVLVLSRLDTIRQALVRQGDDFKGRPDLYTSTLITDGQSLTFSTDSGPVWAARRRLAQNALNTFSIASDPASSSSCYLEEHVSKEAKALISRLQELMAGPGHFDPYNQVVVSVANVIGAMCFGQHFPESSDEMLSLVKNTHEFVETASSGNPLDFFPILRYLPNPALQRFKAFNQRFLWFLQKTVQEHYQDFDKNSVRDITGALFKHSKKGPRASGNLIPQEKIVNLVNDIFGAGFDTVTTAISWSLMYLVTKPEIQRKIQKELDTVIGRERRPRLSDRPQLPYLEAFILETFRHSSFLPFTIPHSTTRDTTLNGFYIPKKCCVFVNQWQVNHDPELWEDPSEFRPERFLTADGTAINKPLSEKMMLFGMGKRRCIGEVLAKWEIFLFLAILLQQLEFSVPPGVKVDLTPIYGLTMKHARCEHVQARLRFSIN

The target of the data set is CYP1A2 (Homo sapiens, UniProt P05177). The data set is described as follows: Inhibition of CYP1A2 in human liver microsomes at 10 uM preincubated for 10 mins followed by addition of NADPH-regenerating system and measured after 15 mins by LC-MS/MS analysis relative to control. The data set is classed as ADME, Microsome. The following applies: time 25 min.

The structures appear in SMILES notation.

The molecule `O=c1cc(-c2ccccc2)oc2c1ccc1ccccc12` [ALPHA-NAPHTHOFLAVONE] had an inhibition at 0.25 h, 10 µM of 89.2%.
